# AlphaSeq binding of Ab-14 light chain variants to a spike HR2 peptide

The target is the same throughout: PDVDLGDISGINAS, from the HR2 region of SARS-CoV-2 spike.

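These sequences belong to a second round, designed from the earlier measurements on random variants of the parent. Several design methods are mixed in this list. AlphaSeq pools MATa yeast showing the antibodies with MATalpha yeast showing the peptide. After mating in shaken culture at 30 °C for 16 h, diploids were selected and their barcode pairs sequenced. Scores were corrected for input abundance and mapped to Kd with protein pairs of known affinity run in the same pool. Each pool was mated in six replicate cultures.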

Parent scFv Ab-14: VH joined to VL by three GGGGS repeats. Changes lie in the light chain CDRs alone.
VH: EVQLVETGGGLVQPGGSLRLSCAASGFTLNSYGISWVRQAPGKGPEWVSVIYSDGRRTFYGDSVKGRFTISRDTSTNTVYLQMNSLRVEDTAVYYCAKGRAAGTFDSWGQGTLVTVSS
VL: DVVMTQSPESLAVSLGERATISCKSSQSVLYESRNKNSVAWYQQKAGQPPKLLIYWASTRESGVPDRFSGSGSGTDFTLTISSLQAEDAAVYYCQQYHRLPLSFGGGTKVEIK

Positions count from residue 1 of the parent VL; S25L puts L in place of S.
Variants here have at most six changes.
Values are apparent Kd, the geometric mean of the replicates that gave a signal; lower means stronger binding.
Where no diploid with the target was found in any replicate, the entry reads "nd": below detection, most likely a poor binder, though not proof of it.

With S25L V29D W56D T59Q the result was 2.6 nM (6 of 6 replicates; controls 0 of 18).
With S26T Y31G W56Y E61I the result was 48 nM (6 of 6 replicates; controls 0 of 18).
With S25L V29H S38N W56N the result was 3.0 nM (6 of 6 replicates; controls 0 of 18).
With S25M R34N the result was 6.5 nM (6 of 6 replicates; controls 0 of 18).
With N35T R99M L100H S103T the result was 380 nM (1 of 6 replicates; controls 0 of 18).
With S25L S26Q L30Q W56N T59D E61Q the result was 670 pM (6 of 6 replicates; controls 1 of 18).
With S25L Q27E L30E W56D S58Q E61Q the result was 900 pM (6 of 6 replicates; controls 3 of 18).
With S25L V29T S33Q K36C W56Q T59Q the result was 1.0 nM (6 of 6 replicates; controls 0 of 18).
With S25F V29W W56E T59Q the result was 280 pM (6 of 6 replicates; controls 1 of 18).
With S25C L30V R34V K36T the result was 91 nM (5 of 6 replicates; controls 0 of 18).
With S25V S26M L30P W56N T59Q S62L the result was 2.5 nM (6 of 6 replicates; controls 2 of 18).
With S25A Q27P V29E L30E W56N T59Y the result was 2.3 nM (6 of 6 replicates; controls 1 of 18).
With S25L E32G W56N the result was 470 pM (6 of 6 replicates; controls 1 of 18).
With S25M S26A W56H the result was 2.0 nM (6 of 6 replicates; controls 0 of 18).
With S25L E32G S33D W56H S103Y the result was 570 pM (6 of 6 replicates; controls 0 of 18).
With K24I S25I W56N the result was 1.1 nM (6 of 6 replicates; controls 2 of 18).
With S38H L100W the result was nd (0 of 6 replicates; controls 0 of 18).
With Q27I V29K K36T W56E the result was 6.5 nM (6 of 6 replicates; controls 0 of 18).
With Q27Y Y31G V39I the result was 27 nM (6 of 6 replicates; controls 2 of 18).
With Q27W R34N W56H T59Q S62D the result was 1.5 nM (6 of 6 replicates; controls 0 of 18).
With R34Q E61V the result was 8.8 nM (6 of 6 replicates; controls 0 of 18).
With K24G S25L W56D the result was 1.9 nM (6 of 6 replicates; controls 1 of 18).
With S25L Q27P V29D W56E the result was 630 pM (6 of 6 replicates; controls 0 of 18).
With S25L S28Q V29N W56N T59Q E61L the result was 520 pM (6 of 6 replicates; controls 0 of 18).
With N35F T59E R60P the result was nd (0 of 6 replicates; controls 0 of 18).
With V29F K36F W56D the result was 610 pM (6 of 6 replicates; controls 1 of 18).
With S26L S28P V29K W56Q Q95A L100T the result was nd (0 of 6 replicates; controls 0 of 18).
With K24I S25L S26D V29Q W56N S62M the result was 770 pM (6 of 6 replicates; controls 0 of 18).
With S25L S33D W56N E61C the result was 770 pM (6 of 6 replicates; controls 2 of 18).
With S25L S26E V29W W56N E61S the result was 690 pM (6 of 6 replicates; controls 1 of 18).
With P101Y the result was 180 nM (5 of 6 replicates; controls 0 of 18).
With S25L S26M N35D W56H S62D the result was 3.7 nM (6 of 6 replicates; controls 0 of 18).
With R34K T59V L100W the result was 2.0 µM (1 of 6 replicates; controls 1 of 18).
With S25F S33E W56N T59Q the result was 660 pM (6 of 6 replicates; controls 1 of 18).
With S25L S26R V29G L30N W56N Q96I the result was 17 nM (6 of 6 replicates; controls 2 of 18).
With S25L S26R V29T L30G W56G the result was 730 pM (6 of 6 replicates; controls 0 of 18).
With S25L V29D W56N T59Q Q96D the result was 830 pM (6 of 6 replicates; controls 2 of 18).
With S25L V29C W56N E61M the result was 930 pM (6 of 6 replicates; controls 1 of 18).
With V29D N35W W56G T59Q the result was 15 nM (6 of 6 replicates; controls 1 of 18).
With S25L S26E V29T K36Q S62E the result was 4.7 nM (6 of 6 replicates; controls 1 of 18).
With V29W W56G S62K the result was 580 pM (6 of 6 replicates; controls 0 of 18).
With K36H S62E the result was 39 nM (6 of 6 replicates; controls 0 of 18).
With S25I L30N the result was 3.2 nM (6 of 6 replicates; controls 0 of 18).
With S25L S26E V29M W56N E61L the result was 630 pM (6 of 6 replicates; controls 0 of 18).
With Q27I V29Y R34V W56A the result was 4.1 nM (6 of 6 replicates; controls 1 of 18).

A selection of 7 entries from above:

{"changes": "S25L V29T S33Q K36C W56Q T59Q", "Kd": "1.0 nM", "seen in": "6 of 6", "signal with controls": "0 of 18"}
{"changes": "Q27W R34N W56H T59Q S62D", "Kd": "1.5 nM", "seen in": "6 of 6", "signal with controls": "0 of 18"}
{"changes": "K36H S62E", "Kd": "39 nM", "seen in": "6 of 6", "signal with controls": "0 of 18"}
{"changes": "V29D N35W W56G T59Q", "Kd": "15 nM", "seen in": "6 of 6", "signal with controls": "1 of 18"}
{"changes": "S25L S26Q L30Q W56N T59D E61Q", "Kd": "670 pM", "seen in": "6 of 6", "signal with controls": "1 of 18"}
{"changes": "S25L S26E V29M W56N E61L", "Kd": "630 pM", "seen in": "6 of 6", "signal with controls": "0 of 18"}
{"changes": "P101Y", "Kd": "180 nM", "seen in": "5 of 6", "signal with controls": "0 of 18"}

In the paper, a design with two or fewer of six values counts as a poor binder.
The range of this assay differs from that of the first round, and the authors advise against merging the two.
As a blank, each scFv also met three strains without target: over all light chain designs, 4% of these pairings were detected, typically at 430 nM and seldom below 38 nM. The control count says in how many pairings with the empty strains this scFv gave a signal.
Of ten entries with the parent sequence, four were seen in most replicates (averages 2.2 nM to 240 nM), three in one and three in none, so single entries are noisy.

Source: Li et al. 2023 (doi:10.1038/s41467-023-39022-2), MIT Lincoln Laboratory and A-Alpha Bio; data file from the FLAb repository.